Measurements: ChEMBL document CHEMBL1126247, “Iodoaminopotentidine and related compounds: a new class of ligands with high affinity and selectivity for the histamine H2 receptor” (J Med Chem, 1992)
pKi: −log10 of the molar value.

Protein sequences, listed by entry. Tags and fused reporters are not part of them.
UniProt P47747, whole entry: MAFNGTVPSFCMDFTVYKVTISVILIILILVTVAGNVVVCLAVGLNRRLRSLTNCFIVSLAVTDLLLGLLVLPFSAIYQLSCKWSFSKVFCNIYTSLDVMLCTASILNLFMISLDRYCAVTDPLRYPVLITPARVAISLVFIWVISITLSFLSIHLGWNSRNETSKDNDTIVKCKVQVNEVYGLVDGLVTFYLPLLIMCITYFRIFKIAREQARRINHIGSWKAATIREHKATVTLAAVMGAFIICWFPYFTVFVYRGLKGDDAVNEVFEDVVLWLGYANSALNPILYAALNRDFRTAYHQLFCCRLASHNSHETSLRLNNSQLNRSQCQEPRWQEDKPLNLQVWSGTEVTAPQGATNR

Legend:
[1] = target: Histamine H2 receptor (Cavia porcellus, UniProt P47747); assay: Inhibition of [125I]APT binding to H2 receptors in guinea pig cerebral membranes.; format: cell membranes
Summary of the method: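 Striatal membranes from male Hartley guinea pigs (200-300 g) in 50 mM sodium/potassium phosphate, pH 7.5, with 0.1% gelatin. Membranes incubated with 125I-APT 120 min at 25 °C, in triplicate. Stopped with cold buffer containing 0.1% BSA, then filtered on polyethylenimine-treated glass-fiber filters and γ-counted. Nonspecific binding defined with 1 μM tiotidine. Azido compounds handled under dim light.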

[2] = Inhibition of the positive chronotropic response (H2-antagonism) of guinea pig right atrium relative to cimetidine.; format: functional, Cavia porcellus, Cardiac atrium

| SMILES | pKi [1] | Relative potency [2] [%] |
| --- | --- | --- |
| CN/C(=N/CCSCc1nc[nH]c1C)NC#N [CIMETIDINE] | 6.52 | – |
| C/N=C(/NC#N)NCCSCc1csc(NC(=N)N)n1 [TIOTIDINE] | 8.25 | 2512 |
